Experiments:
[1] = test system: MDA‐MB‐436 (BRCA1‐deficient) xenograft; assay: MDA‐MB‐436 cell‐line‐derived xenograft model; format: in vivo, nude mice; settings: day 21
[2] = test system: MX‐1 (BRCA1‐deficient, BRCA2‐mutated) xenograft; assay: MX‐1 cell‐line‐derived xenograft model; format: in vivo, nude mice; settings: 10 mg/kg combined with TMZ 50 mg/kg, Figure 6C
[3] = 3 mg/kg combined with TMZ 50 mg/kg

Row | SMILES | partial tumor regression ([1]; 1 mg/kg combined with TMZ 50 mg/kg) | partial tumor regression [1, 3] | partial tumor regression [2]
1 | O=C(c1cc(Cc2n[nH]c(=O)c3ccccc23)ccc1F)N1CCn2nc(C(F)(F)F)nc2C1 [Fluzoparib] | 4/6 | 6/6 | 5/6
2 | O=C(c1cc(Cc2n[nH]c(=O)c3ccccc23)ccc1F)N1CCN(C(=O)C2CC2)CC1 [Olaparib] | – | 5/6 | –
